Two substances from patent US20230391892A1 can be followed below.

For experiment [1], the target named is TGF-β1 (human) (UniProt P01137).
Another experiment addresses TGF-β3 (human) (UniProt P10600).
Experiment [2] has as its target TGF-β1 (human) (UniProt P01137). The experiment can be described thus: BLI (Octet RED96), antagonist captured on biosensor, ligand in solution. (In general: In BLI a coated tip is dipped into the sample, and binding shifts an interference pattern.)

With A120 (from UniProt P0DOX7 1-214), in the experiment with TGF-β1 (human) [1], the IC50; neutralisation of TGF-β1 (1 nM) signalling, C2C12-CAGA-luc Smad2/3 luciferase reporter cells (RLU) was found to be 1.9 nM. This substance also had an IC50; neutralisation of TGF-β3 (1 nM) signalling, C2C12-CAGA-luc Smad2/3 luciferase reporter cells (RLU) with TGF-β3 (human) of 0.1 nM. Consider “A120 (from UniProt P0DOX7 1-214) (other; other documents disagree on this pair)”, for which the Kd (commonly the concentration at which binding is half-saturated) with TGF-β1 (human) [2] was determined as 0.507 nM.
